Results on three compounds are retold here after ChEMBL document CHEMBL1255514, “Discovery of 8-azabicyclo[3.2.1]octan-3-yloxy-benzamides as selective antagonists of the kappa opioid receptor. Part 1” (Bioorg Med Chem Lett, 2010).

Sequences of proteins named here, by UniProt entry; tags and fusion partners are left off. A change or cut given only in a name is not applied to a line headed by its entry.
UniProt P41143, whole entry: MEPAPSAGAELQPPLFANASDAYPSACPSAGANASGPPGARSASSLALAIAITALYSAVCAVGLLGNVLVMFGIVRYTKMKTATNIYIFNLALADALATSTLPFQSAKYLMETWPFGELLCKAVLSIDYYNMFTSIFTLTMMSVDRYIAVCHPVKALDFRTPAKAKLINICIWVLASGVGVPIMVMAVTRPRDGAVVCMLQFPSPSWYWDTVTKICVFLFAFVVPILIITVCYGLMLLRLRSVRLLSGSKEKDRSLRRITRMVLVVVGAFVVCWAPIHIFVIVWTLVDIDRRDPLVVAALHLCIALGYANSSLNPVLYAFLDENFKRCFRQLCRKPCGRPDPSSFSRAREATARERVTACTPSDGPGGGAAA
UniProt P41145: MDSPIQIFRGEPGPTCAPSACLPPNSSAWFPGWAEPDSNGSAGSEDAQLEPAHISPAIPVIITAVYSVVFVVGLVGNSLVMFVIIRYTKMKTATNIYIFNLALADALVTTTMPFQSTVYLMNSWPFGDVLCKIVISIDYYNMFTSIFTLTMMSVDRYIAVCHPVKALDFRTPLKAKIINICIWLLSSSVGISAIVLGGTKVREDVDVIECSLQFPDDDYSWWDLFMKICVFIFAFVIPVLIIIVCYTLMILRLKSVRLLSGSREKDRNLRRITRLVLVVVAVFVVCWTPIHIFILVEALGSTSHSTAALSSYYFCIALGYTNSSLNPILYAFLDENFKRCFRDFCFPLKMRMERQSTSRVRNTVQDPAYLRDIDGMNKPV
UniProt P35372, whole entry: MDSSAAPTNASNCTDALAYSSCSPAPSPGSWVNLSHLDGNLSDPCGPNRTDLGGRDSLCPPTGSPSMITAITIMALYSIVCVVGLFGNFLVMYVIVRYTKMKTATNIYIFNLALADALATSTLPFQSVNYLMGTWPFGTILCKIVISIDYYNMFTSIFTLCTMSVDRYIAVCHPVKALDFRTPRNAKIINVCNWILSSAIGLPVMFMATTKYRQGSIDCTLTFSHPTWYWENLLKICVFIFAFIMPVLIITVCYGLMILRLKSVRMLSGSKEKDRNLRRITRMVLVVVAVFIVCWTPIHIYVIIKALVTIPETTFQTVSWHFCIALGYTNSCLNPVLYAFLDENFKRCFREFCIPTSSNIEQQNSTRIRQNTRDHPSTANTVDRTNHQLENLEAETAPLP

Common to all, as to format: functional
Assay [1] concerns the target Delta-type opioid receptor (Homo sapiens, UniProt P41143). Briefly: Antagonist activity at human delta opioid receptor assessed as inhibition of SNC80-stimulated [35S]GTPgammaS binding. (GTPγS resists hydrolysis and so accumulates on activated G proteins.)
Assay [2] deals with Kappa-type opioid receptor (Homo sapiens, UniProt P41145). Briefly: Antagonist activity at human kappa opioid receptor assessed as inhibition of dynorphin A-induced [35S]GTPgammaS binding.
For the next assay, the target named is Mu-type opioid receptor (Homo sapiens, UniProt P35372). Kind of assay: Antagonist activity at human mu opioid receptor assessed as inhibition of DAMGO-stimulated [35S]GTPgammaS binding.

In the case of `Cc1cccc(CN2[C@@H]3CC[C@H]2C[C@H](Oc2cccc(C(N)=O)c2)C3)c1`, the IC50 (usually the concentration that gives 50% inhibition) in assay [1] is 11.1 µM; in assay [2], 148 nM; on Mu-type opioid receptor, 2650 nM.
Turning to `C[C@H](c1ccc(Cl)nc1)N1[C@@H]2CC[C@H]1C[C@H](Oc1cccc(C(N)=O)c1)C2`, the IC50 came to 90 nM in assay [2] and 1940 nM on Mu-type opioid receptor.
On to `CC(c1ccncc1)N1[C@@H]2CC[C@H]1C[C@H](Oc1cccc(C(N)=O)c1)C2` (stereo partly specified), for which the IC50 in assay [2] was found to be 1410 nM.
